# Results from patent publication US10954214B2 (Janssen Pharmaceutica NV, priority 2016, dated 2021).
# Assays:
# TMD8 cells = experiment: 4-day proliferation assay, TMD8; format: cell-based; conditions: Homo sapiens, 96 h, 4 days incubation, CellTiterGLO, read-out: Anti-proliferation: TMD-8 IC50
# Method: (§1) To assess anti-proliferative effects, MALT1 inhibitor test compounds were tested in 4-day proliferation assays using three different DLBCL cell lines.
# (§2) OCI-Ly3 cells were propagated in RPMI-1640 (Sigma Aldrich) supplemented with 10% fetal bovine serum (HyClone), 2 mM L-glutamine (Sigma Aldrich) and 1% PenStrep (Sigma Aldrich). TMD8 cells were propagated in RPMI-1640 (Sigma Aldrich) supplemented with 10% fetal bovine serum (HyClone), 1 mM sodium pyruvate (Invitrogen), 2 mM L-glutamine (Sigma Aldrich) and 1% PenStrep (Sigma Aldrich). Cells should be kept between 0.5-2.5 million cells per mL during culturing and cells should be supplemented every 2-3 days with fresh 50 μM beta-mercaptoenthanol. No beta-mercaptoethanol is used during the proliferation assay. OCI-Ly7 cells were propagated in IMDM (ThermoFisher) supplemented with 10% fetal bovine serum (HyClone), 2 mM L-glutamine (Sigma Aldrich) and 50 μg/mL Gentamycin. […]
# (§3) To assess anti-proliferative effects, 400 nL of test compounds were spotted per well of 96-well plates (Costar, catalogue number 3904). […] After 4 days of incubation 50 μL CellTiterGLO reagent (Promega) were added to each well and luminescence was measured on the Envision after 10 min of incubation at room temperature.
# (§4) IC50 values were calculated using the following formula (Z prime should be >0.5): […]
# OCI-Ly3 cells = experiment: 4-day proliferation assay, OCI-Ly3; format: cell-based; conditions: Homo sapiens, 96 h, 4 days incubation, CellTiterGLO, read-out: Anti-proliferation: OCI-LY-3 IC50
# Method: as §1, §2, §3, §4
structure (smiles),measurement,setting,value
"O=C(Nc1ccnc(C(F)(F)F)c1)c1cnn(-c2cccc3c(=O)[nH]ccc23)c1C(F)(F)F [Cpd 158, 1-(1-oxo-1,2-dihydroisoquinolin-5-yl)-5-(trifluoromethyl)-N-(2-(trifluoromethyl)pyridin-4-yl)-1H-pyrazole-4-carboxamide]",IC50,TMD8 cells,4570 nM
same,IC50,OCI-Ly3 cells,567 nM
